{"source": "patent US20260207540A1", "about": "(priority 2020, published 2026)", "origin": "cited, not measured here", "conditions": "2.4 mg/mL, asthmatics"}
{"substance": "disodium ethylenediamine tetraacetate [disodium edetate]", "values": [{"measurement": "drop in FEV1, on average", "value": 20, "unit": "%"}]}
